This note sets out measurements from patent US20220023399A1, “BLOOD COMPONENT POTENTIATION OF LYTIC PROTEIN ANTI-BACTERIAL ACTIVITY AND METHODS AND USES THEREOF” (priority 2017, published 2022).

This assay deals with staphylococci (strain not given). Kind of assay: Checkerboard analysis of PlySs2/CF-301 with AMPs, antimicrobial proteins and albumins in heat-inactivated human serum. Format: cell-based, S. aureus. Particulars: in combination with PlySs2/CF-301.
As for “Serum albumin (Human, fraction V): human serum albumin, fraction V”, the ΣFICavg is recorded as no more than 0.086.
Take “Serum albumin (Mouse, recombinant): mouse serum albumin, recombinant expressed in yeast”: the ΣFICavg is recorded as no less than 1.16.
The same measure for “Serum albumin (Human, recombinant): human serum albumin, recombinant”: no more than 0.1; for “Serum albumin (Mouse, from serum): mouse serum albumin from serum”: no less than 1.16.
